Results as given in patent US20210145989A1, “COMPOSITIONS AND RELATED METHODS FOR BLOCKING OFF-TARGET LOCALIZATION OF MANNOSYLATED DEXTRANS AND OTHER CD206 LIGANDS” (Navidea Biopharmaceuticals, Inc., priority 2019, published 2021).
Entries after “also recorded” stand apart in the source; their conditions may differ.

Test system: CD206
Experiment: Autoradiography of 99mTc-tilmanocept organ localization after IV injection in healthy rats
Type: in vivo
Conditions: male Sprague Dawley rat, IV tail vein, 25 μg labeled with 5 mCi 99mTc, one hour after injection, autoradiogram
Description: Because of their high affinity for CD206, mannosylated dextrans generally and 99mTc-tilmanocept specifically have been investigated as either imaging agents or drug delivery vehicles for macrophage involved illnesses atherosclerosis, cancer and rheumatoid arthritis (unpublished results). Diagnostic imaging studies were performed using Lymphoseek (99mTc-tilmanocept) that was administered by intravenous (IV) injection rather than the peritumoral or intradermal injection route of administration used for the SLN related indications. […] The Sprague Dawley rats in this study were healthy, so there were no disease lesions to which 99mTc-tilmanocept could have localized.

## dextran 3-[(2-aminoethyl)thio]propyl 17-carboxy-10,13,16-tris(carboxymethyl)-8-oxo-4-thia-7,10,13,16-tetraazaheptadec-1-yl 3-[[2-[[1-imino-2-(D-mannopyranosylthio)ethyl]amino]ethyl]thio]propyl ether complexes [99mTc-tilmanocept]
  localization of radioactivity to the liver and kidneys: greatest localization; also recorded: intense localization
